From patent US6039950A, “Pharmaceutical grade saw palmetto” (priority 1997, dated 2000)
pIC50: −log10 of the molar value.

Target: T1, 5-lipoxygenase (Rattus norvegicus, UniProt P12527)
T1 sequence (P12527 1-673): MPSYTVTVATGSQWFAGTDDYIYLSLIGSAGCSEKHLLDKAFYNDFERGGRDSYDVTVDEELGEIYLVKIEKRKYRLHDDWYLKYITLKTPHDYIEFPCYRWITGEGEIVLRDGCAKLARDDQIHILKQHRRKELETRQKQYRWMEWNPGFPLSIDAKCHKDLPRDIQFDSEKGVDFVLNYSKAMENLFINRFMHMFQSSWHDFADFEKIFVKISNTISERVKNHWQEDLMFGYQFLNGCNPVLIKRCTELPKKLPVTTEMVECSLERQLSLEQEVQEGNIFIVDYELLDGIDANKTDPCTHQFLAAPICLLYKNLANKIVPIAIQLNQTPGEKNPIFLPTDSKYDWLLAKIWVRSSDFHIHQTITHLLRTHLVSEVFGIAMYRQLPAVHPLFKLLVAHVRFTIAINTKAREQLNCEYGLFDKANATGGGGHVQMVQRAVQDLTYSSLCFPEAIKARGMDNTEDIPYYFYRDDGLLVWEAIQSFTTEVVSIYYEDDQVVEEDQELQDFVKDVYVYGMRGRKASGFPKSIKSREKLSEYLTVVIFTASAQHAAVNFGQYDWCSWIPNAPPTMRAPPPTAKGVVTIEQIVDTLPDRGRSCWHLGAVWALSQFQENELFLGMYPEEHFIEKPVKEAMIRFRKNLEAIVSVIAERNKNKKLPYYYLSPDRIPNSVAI
Test: biochemical
Details: reference compound; read-out: IC50, reference compounds, 5-lipoxygenase

- pIC50: 5.18
Compound: NC1=NN(c2cccc(C(F)(F)F)c2)CC1 [BW-755C, reference compound]
